Assay results: patent US5936105A, “14-EPI-19-nor-vitamin D compounds and methods” (Tetrionics, Inc., priority 1998, dated 1999)

How the values were obtained:
HL-60 cells [1] = experiment: Inhibition of HL-60 cell proliferation (thymidine incorporation assay); assay type: cell-based; details: Homo sapiens, read-out: EC50 (50% reduction in thymidine incorporation; text: IC50)
HL-60 cells [2] = experiment: Differentiation of HL-60 cells (NBT reduction assay); assay type: cell-based; details: Homo sapiens, read-out: EC50 (concentration to induce differentiation in 50% of the cells; text: IC50)

Work on C=C1/C(=C\C=C2/CCC[C@]3(C)[C@@H]([C@H](C)CCCC(C)(C)O)CC[C@@H]23)C[C@@H](O)C[C@@H]1O [1,25(OH)2 D3, 1α,25-dihydroxyvitamin D3] yielded an EC50 (HL-60 cells [1]) of 30 nM and an EC50 (HL-60 cells [2]) of 0.5 nM.
